The list shows a part of the results, in another mix than the full data. Calls of active or inactive are those of the source. Rule as the data show it: active = inhibition above about 49%; inactive = the rest.
What follows are compounds tested against Trace amine-associated receptor 1 (Homo sapiens) (UniProt Q96RJ0) (assay: human TAAR1 antagonists, retest of hits, confirmation, cell-based, fluorescence (AID 651785;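 also: CHO-Ga16 host cells challenged with agonist PEA near its EC80; 0% = agonist at EC80 plus vehicle and 100% = vehicle with no agonist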)). Conditions: TAAR1-expressing cells, fluorescence antagonist read-out; at 3 µM; hits give high values.

Chains of the proteins cited; added tags and fusions are not shown. Lines headed by an entry give the natural chain unless they say otherwise; changes in a name come on top.
UniProt Q96RJ0: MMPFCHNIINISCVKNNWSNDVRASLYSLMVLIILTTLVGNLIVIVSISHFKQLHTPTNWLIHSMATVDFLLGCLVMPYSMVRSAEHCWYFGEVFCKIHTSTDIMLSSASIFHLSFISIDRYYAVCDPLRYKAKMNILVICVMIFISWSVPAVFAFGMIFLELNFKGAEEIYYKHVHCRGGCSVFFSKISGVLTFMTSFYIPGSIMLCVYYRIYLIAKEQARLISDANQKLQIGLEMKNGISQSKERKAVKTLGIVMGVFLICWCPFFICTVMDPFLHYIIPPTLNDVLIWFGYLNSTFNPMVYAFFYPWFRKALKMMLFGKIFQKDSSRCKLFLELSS

| Structure (SMILES) | inhibition |
| --- | --- |
| Cc1ccccc1OP(=O)(Nc1ccccn1)Oc1ccccc1C | inactive: 48.1% |
